BindingDB's records for doi:10.1111/j.1747-0285.2008.00729.x (The Ohio State University, 2008)

Chains of the proteins cited; added tags and fusions are not shown.
UniProt P02550, whole entry, looked up: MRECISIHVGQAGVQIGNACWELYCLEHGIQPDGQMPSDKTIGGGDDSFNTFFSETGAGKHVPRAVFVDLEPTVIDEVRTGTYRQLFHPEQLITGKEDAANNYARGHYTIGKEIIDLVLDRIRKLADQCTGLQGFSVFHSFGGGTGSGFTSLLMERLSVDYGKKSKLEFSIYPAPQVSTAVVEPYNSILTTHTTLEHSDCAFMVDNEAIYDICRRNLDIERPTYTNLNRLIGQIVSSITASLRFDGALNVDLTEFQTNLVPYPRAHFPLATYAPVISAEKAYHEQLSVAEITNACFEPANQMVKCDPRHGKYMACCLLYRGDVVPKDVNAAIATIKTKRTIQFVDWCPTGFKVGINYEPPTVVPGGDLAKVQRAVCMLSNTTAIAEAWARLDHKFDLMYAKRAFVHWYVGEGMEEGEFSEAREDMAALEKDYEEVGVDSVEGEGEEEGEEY

molecular target: Tubulin alpha-1A chain (Sus scrofa, UniProt P02550)

Row | Compound | IC50
1 | CCOc1cccc(C(=O)Nc2ccc(S(=O)(=O)N3CCCC3)cc2)c1 [Chembridge No 7946770, Class 1, 9] | 67 µM
2 | CCN(CC)S(=O)(=O)c1ccc(NC(=O)c2ccccc2SC)cc1 [Chembridge No 7960631, Class 1, 10] | 68 µM
3 | COc1cc([C@@H]2c3cc4c(cc3[C@H](O)[C@H]3COC(=O)[C@H]23)OCO4)cc(OC)c1OC [podophyllotoxin] | 1.4 µM
